The nature of this data set: Trastuzumab attachment: protein per lipid and trastuzumab molecules per liposome (BCA + Stewart assays combined). Type of data set: physicochemical. The settings on record: Trastuzumab line = immunoliposomes minus control liposomes (attached trastuzumab). An excerpt:
With the knowledge of the molecular weight of trastuzumab and DPPC, the number of trastuzumab molecules per vesicle can be calculated after quantifying the protein and lipids amounts using BCA assay and Stewart assay.
In order to confirm the attachment of the mAb Trastuzumab to liposomes, the BCA assay and Stewart assay may be used as described herein. The BCA assay may be used to determine the concentration of protein in the sample (μg/ml), while the Stewart assay may be used to determine DPPC concentration in the sample (mg/ml). Combining the two methods, a w/w ratio of protein to lipids in (μg/mg) may be obtained, thereby excluding the effect of different concentrations alterations. The results for three batches of liposomes may be averaged to confirm attachment consistency and standard deviation.
Also, the number of liposomes attached per each liposomes vesicle may be calculated. As described herein, the control liposomes are NH2 liposomes that are mixed with the antibody but without performing the attachment reaction. The control liposomes may be purified using the same purification column of that of immunoliposomes, to confirm that any increase in the protein level is only due to attached trastuzumab. Any difference in protein level can be considered due to the presence of attached Trastuzumab.
Assuming a liposome size of 100 nm in radius and an average area for a single phospholipid molecule of about 75 A°, the average number of lipid molecules constructing a single liposomes vesicle may be 80,000. […] This is considered to fall within the optimal range that may induce sufficient cell cytotoxicity. In some embodiments, each immunoliposome may have about 1, 2, 4, 6, 7, 8, 10, 11, 12, 14, 18, 24, 30, 50, or more than 50 trastuzumab molecules conjugated to the liposome vesicle.

On to “Trastuzumab: humanized IgG(1) kappa monoclonal antibody (145.5 kDa) with high affinity towards the HER2 receptor”, for which the “protein level per lipids” value came out at 17.8029 μg protein/mg lipids (batch 1), 20.3999 μg protein/mg lipids (batch 2) and 24.8468 μg protein/mg lipids (batch 3).
